Measurements published in ChEMBL document CHEMBL1127517 (J Med Chem, 1994).

By UniProt entry, the sequences of proteins in these tests, tags left out.
UniProt P23977, whole entry: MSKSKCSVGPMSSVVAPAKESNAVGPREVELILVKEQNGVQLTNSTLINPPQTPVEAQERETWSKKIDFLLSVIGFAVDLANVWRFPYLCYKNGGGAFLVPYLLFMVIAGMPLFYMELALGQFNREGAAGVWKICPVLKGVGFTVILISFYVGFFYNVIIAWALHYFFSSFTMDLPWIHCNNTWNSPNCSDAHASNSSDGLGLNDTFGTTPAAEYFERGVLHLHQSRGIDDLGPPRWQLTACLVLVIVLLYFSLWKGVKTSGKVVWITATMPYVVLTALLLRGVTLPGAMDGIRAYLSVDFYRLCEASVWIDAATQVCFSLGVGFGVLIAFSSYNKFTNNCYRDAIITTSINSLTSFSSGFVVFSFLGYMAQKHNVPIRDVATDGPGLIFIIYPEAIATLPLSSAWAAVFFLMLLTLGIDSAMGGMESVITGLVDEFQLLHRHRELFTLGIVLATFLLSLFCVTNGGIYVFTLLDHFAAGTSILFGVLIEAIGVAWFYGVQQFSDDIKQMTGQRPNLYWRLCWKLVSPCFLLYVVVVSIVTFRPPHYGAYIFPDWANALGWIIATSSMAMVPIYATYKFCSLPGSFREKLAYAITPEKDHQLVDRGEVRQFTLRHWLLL

Target: Sodium-dependent dopamine transporter (Rattus norvegicus, UniProt P23977)
Assay: Inhibitory constant towards reuptake of [125I]-12 from dopamine transporter in rat striatal membranes
Type: cell membranes, Membrane

Fc1ccc([C@@H]2CCNC[C@H]2COc2ccc3c(c2)OCO3)cc1 [PAROXETINE]
Ki: 400 nM
